Test results taken from paper PMC10855908 (International Journal of Molecular Sciences, 2024).
Values after ≈ are worked out from the molar mass of the structure shown.

Legend:
[1] = tested on: Micrococcus luteus ATCC10240; assay: MIC microtitration assay; type: cell-based
M. luteus ATCC10240 = assay: Agar well diffusion; type: cell-based, Micrococcus luteus; conditions: Mueller–Hinton soft agar, 80 μL of enterocin at 200 μg/mL, 24 h 37 °C, dash = not active

Compound: CC[C@H](C)[C@H](NC(=O)[C@H](Cc1c[nH]cn1)NC(=O)[C@H](CCCCN)NC(=O)[C@H](CCCCN)NC(=O)[C@@H](NC(=O)[C@H](Cc1c[nH]c2ccccc12)NC(=O)[C@H](CCC(=O)O)NC(=O)[C@@H](NC(=O)[C@@H](NC(=O)[C@H](CCCCN)NC(=O)[C@H](CC(N)=O)NC(=O)[C@@H](NC(=O)[C@H](C)NC(=O)[C@H](Cc1c[nH]c2ccccc12)NC(=O)CNC(=O)[C@H](CCC(=O)O)NC(=O)CNC(=O)[C@@H](NC(=O)[C@H](Cc1ccccc1)NC(=O)[C@H](CCC(N)=O)NC(=O)[C@H](CCSC)NC(=O)[C@@H](NC(=O)[C@H](CCC(N)=O)NC(=O)[C@H](CCCCN)NC(=O)[C@H](Cc1ccc(O)cc1)NC(=O)[C@H](Cc1ccc(O)cc1)NC(=O)[C@H](CCCCN)NC(=O)[C@H](CCCCN)NC(=O)[C@@H](NC(=O)[C@@H](NC(=O)[C@@H]1CCCN1C(=O)[C@H](Cc1c[nH]c2ccccc12)NC(=O)CNC(=O)[C@H](Cc1ccccc1)NC(=O)[C@H](CCCCN)NC(=O)[C@H](C)NC(=O)[C@@H](NC(=O)[C@H](CC(C)C)NC(=O)[C@H](CCCCN)NC(=O)[C@H](C)NC(=O)[C@@H](NC(=O)[C@H](C)NC(=O)CNC(=O)[C@@H](N)CCSC)[C@@H](C)CC)C(C)C)[C@@H](C)CC)C(C)C)[C@@H](C)CC)[C@@H](C)CC)[C@@H](C)CC)[C@@H](C)CC)[C@@H](C)CC)[C@@H](C)CC)C(=O)O [Enterocin L50A]
- MIC [1]: 1.56 µg/mL (≈ 0.301 µM)
- Inhibition halos (M. luteus ATCC10240): 20 mm
